Only a part is listed here, and it is no random draw. Active and inactive are the calls of the source.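 How the source made its calls: active means mean Tm shift, scaled 0 neutral to 100 positive control, at about 1.3% or above, every replicate too (limit read from the data); inconclusive means no clear call, values can overlap the other calls; inactive means the rest.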

Chains of the proteins cited; added tags and fusions are not shown.
UniProt Q9HCT0, whole entry: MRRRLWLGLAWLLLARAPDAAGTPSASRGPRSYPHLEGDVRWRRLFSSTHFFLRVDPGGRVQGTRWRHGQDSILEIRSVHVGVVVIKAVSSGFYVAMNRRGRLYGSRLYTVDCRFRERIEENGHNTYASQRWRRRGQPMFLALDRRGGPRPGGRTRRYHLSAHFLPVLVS

In this test the target is Fibroblast growth factor 22 (Homo sapiens) (UniProt Q9HCT0). The test is described as follows: FGF22 ligand-induced thermal stabilization – biophysical, thermal shift, single point, FGF22 synaptogenesis inhibitor project, primary screen (AID 651658). As to conditions: recombinant FGF22 thermal shift, SYPRO orange fluorescence; at 9.99 µM; hits give high values; percent of sucrose octasulfate shift, DMSO zero.
As for `O=[As](O)(O)c1cccnc1`, the activity (Tm shift, normalised) is inactive: -0.27%.
`COc1cc(C(=O)NCC2(N3CCOCC3)CCCCC2)cc(Cl)c1OC(C)C`: the activity (Tm shift, normalised) was inactive: 0.101%.
To `CS(=O)(=O)c1ccc(Cl)c(NC(=O)COC(=O)C(O)(c2ccccc2)c2ccccc2)c1` belongs inactive: -0.001%.
In the case of `COc1ccccc1OP(C)(=O)Nc1cccc(Br)c1` (configuration not stated), the activity (Tm shift, normalised) is inactive: 0.243%.
In the case of `O=C(OC1CN2CCC1CC2)c1ccc(Cl)cc1` (configuration not stated), the activity (Tm shift, normalised) was inactive: -0.17%.
On to `CCOC(=O)c1ccc(NP(C)(=O)Oc2cc(C)cc(C)c2)cc1` (configuration not stated), for which the activity (Tm shift, normalised) was inactive: 0.114%.
For `O=[As](O)(c1cccc(O)c1)c1cccc(O)c1`, the activity (Tm shift, normalised) was inactive: -0.205%.
In the case of `Cc1cc(C)cc(OP(C)(=O)Nc2ccc(C)cc2C)c1` (configuration not stated), the activity (Tm shift, normalised) was inactive: 0.154%.
For `CCCOP(=S)(Nc1nc(N)cc(=O)[nH]1)OCCC`, the activity (Tm shift, normalised) is inactive: -0.087%.
As to `CP(=O)(Nc1cccc(Br)c1)Oc1ccccc1` (configuration not stated), the activity (Tm shift, normalised) is inactive: 0.682%.
With `Nc1cccc2c([As](=O)(O)O)cccc12` the figure was inactive: -0.289%.
With `Cc1ccc(NCCc2c([N+](=O)[O-])cc([N+](=O)[O-])cc2[N+](=O)[O-])cc1` the figure was inactive: 0.406%.
On to `CCOP(=O)(Nc1cccc2ccccc12)OCC`, for which the activity (Tm shift, normalised) was inactive: 0.046%.
On to `CCOP1(=S)c2c(C)nn(CCC#N)c2N=C(c2ccccc2F)N1C` (configuration not stated), for which the activity (Tm shift, normalised) is inactive: 0.254%.
Regarding `O=C(O)c1cccc(Nc2c([N+](=O)[O-])cc([N+](=O)[O-])cc2[N+](=O)[O-])c1`, the activity (Tm shift, normalised) was inactive: -0.068%.
On to `O=P(Nc1nccs1)(Oc1ccccc1)Oc1ccccc1`, for which the activity (Tm shift, normalised) was inactive: 0.167%.
In the case of `Nc1ccccc1[As](=O)(O)c1ccccc1`, the activity (Tm shift, normalised) is inactive: 0.145%.
For `O=C(O)COc1ccc([As](=O)(O)O)cc1[N+](=O)[O-]`, the activity (Tm shift, normalised) is inactive: -0.19%.
As for `CN(C)C(=O)c1cc([N+](=O)[O-])cc2c1-c1c(cc([N+](=O)[O-])cc1[N+](=O)[O-])C2=O`, the activity (Tm shift, normalised) is inactive: -0.061%.
In the case of `CN(C(=O)Cc1ccc(Cl)c(Cl)c1)[C@H]1CC[C@@]2(CCCO2)C[C@@H]1N1CCCC1`, the activity (Tm shift, normalised) was inactive: 0.077%.
For `N#CCCN(C(=O)COC(=O)C(O)(c1ccccc1)c1ccccc1)c1ccc(F)cc1`, the activity (Tm shift, normalised) was inactive: -0.029%.
With `CN(C(=O)Cc1ccccc1)[C@@H]1CC[C@]2(CCCO2)C[C@H]1N1CCCC1`, the activity (Tm shift, normalised) was inactive: -0.204%.
On to `CCOP1(=S)c2c(C)nn(CCC#N)c2N=C(c2ccc(F)cc2)N1C` (configuration not stated), for which the activity (Tm shift, normalised) was inactive: 0.092%.
With `CC1CCC(C(C)C)C(OP(=O)(Nc2ccccn2)c2ccccc2)C1` (configuration not stated), the activity (Tm shift, normalised) was inactive: 0.105%.
On to `Cc1ccc(C(=O)OC2CN3CCC2CC3)cc1` (configuration not stated), for which the activity (Tm shift, normalised) is inactive: -0.067%.
With `O=C(/C=C/c1ccccc1)OC1CN2CCC1CC2` (configuration not stated), the activity (Tm shift, normalised) is inactive: -0.034%.
For `CCCC1OP(=O)(Nc2ccccc2)OCC1CC` (configuration not stated), the activity (Tm shift, normalised) was inactive: 0.481%.
For `CN(C)C1(CNC(=O)c2ccc(S(C)(=O)=O)cc2)CCCCC1`, the activity (Tm shift, normalised) is inactive: 0.129%.
Regarding `O=[N+]([O-])c1cc([N+](=O)[O-])c(Nc2nnnn2CCO)c([N+](=O)[O-])c1`, the activity (Tm shift, normalised) is inactive: -0.007%.
`CCOC(=O)C(CC)C1=NC(C)(C)Cc2ccccc21.O=[N+]([O-])c1cc([N+](=O)[O-])c(O)c([N+](=O)[O-])c1` (configuration not stated): the activity (Tm shift, normalised) was inactive: 1.06%.
As to `CN1CCCCC1COC(=O)C1(O)c2ccccc2CCc2ccccc21` (configuration not stated), the activity (Tm shift, normalised) is inactive: -0.007%.
On to `O=[As](O)(c1cccs1)c1cccs1`, for which the activity (Tm shift, normalised) was inactive: 0.35%.
For the compound `NS(=O)(=O)c1cccc(NC(=O)COC(=O)C(O)(c2ccccc2)c2ccccc2)c1`, the activity (Tm shift, normalised) was inactive: -0.135%.
As to `COc1ccc(-c2ccccn2)cc1.O=[N+]([O-])c1cc([N+](=O)[O-])c(O)c([N+](=O)[O-])c1`, the activity (Tm shift, normalised) was inactive: -0.421%.
In the case of `CCCOc1ccc(NP(C)(=O)Oc2ccc(Cl)cc2)cc1` (configuration not stated), the activity (Tm shift, normalised) is inactive: 0.034%.
For the compound `Nc1cccc([As](=O)(O)c2ccccc2)c1`, the activity (Tm shift, normalised) was inactive: 0.508%.
To `CCOP(=O)(Nc1ccc(C)cn1)OCC` belongs inactive: -0.245%.
Take `CN(CCCl)Cc1cc(Cl)c(NC2=NCCN2)c(Cl)c1`: the activity (Tm shift, normalised) is inactive: -0.158%.
As for `CCC1=CC2Cc3nc4ccc(Cl)cc4c(N)c3C(C1)C2` (configuration not stated), the activity (Tm shift, normalised) is inactive: -0.007%.
As for `O=C(O)C(O)c1ccc(N(CCCl)CCCl)cc1.c1ccncc1` (configuration not stated), the activity (Tm shift, normalised) was inactive: 0.084%.
`O=[N+]([O-])c1cc([N+](=O)[O-])c(-n2nnc3ccccc32)c([N+](=O)[O-])c1`: the activity (Tm shift, normalised) is inactive: 0.236%.
In the case of `CCOP(=O)(NC(=NC(C)c1ccccc1)NC(C)c1ccccc1)OCC` (configuration not stated), the activity (Tm shift, normalised) was inactive: -0.292%.
With `O=P1(N(CCCl)CCCl)NCCC(C(F)(F)F)O1` (configuration not stated) the figure was inactive: -0.185%.
To `CN(Cc1cccnc1)C(=O)COc1ccc(Cl)c(Cl)c1.O=[N+]([O-])c1cc([N+](=O)[O-])c(O)c([N+](=O)[O-])c1` belongs active: 1.41%; to `CC(C)(C)C(=O)NC(Sc1ncccn1)C(Cl)(Cl)Cl` (configuration not stated), inactive: 0.144%.
With `COc1ccccc1CNC(=O)COC(=O)C(O)(c1ccccc1)c1ccccc1`, the activity (Tm shift, normalised) is inactive: 0.182%.
To `O=[N+]([O-])c1cc([N+](=O)[O-])c(-c2cnn(-c3ccccc3)c2)c([N+](=O)[O-])c1` belongs inactive: -0.242%; to `CC(C)/C=N\N=C(\N)N[N+](=O)[O-]`, inactive: 0.345%.
For the compound `CN(C(=O)Cc1ccc(Cl)c(Cl)c1)[C@@H]1CCCC[C@H]1N1CCCC1`, the activity (Tm shift, normalised) was inactive: 0.051%.
Take `CN(C(=O)Cc1ccc(Cl)c(Cl)c1)C1CCCC[C@@H]1N1CCCC1` (some centres not stated): the activity (Tm shift, normalised) is inactive: -0.119%.
To `COP1(=S)c2c(C)nn(CCC#N)c2N=C(c2ccc(F)cc2)N1C` (configuration not stated) belongs inactive: 0.192%.
For `CP(=O)(Nc1ccc(SC(F)(F)F)cc1)Oc1ccc(Cl)cc1` (configuration not stated), the activity (Tm shift, normalised) is inactive: -0.085%.
Consider `CP(=O)(Oc1ccccc1)OC(c1ccccc1)C(F)(F)F` (configuration not stated), for which the activity (Tm shift, normalised) is inactive: -0.171%.
On to `COC(=O)C1(C)COP(=O)(N2CCCC2)OC1` (configuration not stated), for which the activity (Tm shift, normalised) was inactive: -0.692%.
In the case of `CP(=O)(NC(=O)Nc1ccccc1)Oc1ccccc1` (configuration not stated), the activity (Tm shift, normalised) was inactive: -0.245%.
To `CCc1ccc(OP(C)(=O)N2CCN(c3ccc([N+](=O)[O-])cc3)CC2)cc1` (configuration not stated) belongs inactive: -0.353%.
On to `O=C(Nc1ccncc1[N+](=O)[O-])c1ccc([N+](=O)[O-])cc1[N+](=O)[O-]`, for which the activity (Tm shift, normalised) was inactive: 0.17%.
In the case of `CCOC(=O)c1ccc(NP(C)(=O)Oc2ccc(OC)cc2)cc1` (configuration not stated), the activity (Tm shift, normalised) was inactive: -0.145%.
With `CCOC(=O)c1ccc(NC(=O)C(C)(CCl)SC)cc1` (configuration not stated), the activity (Tm shift, normalised) was inactive: -0.337%.
In the case of `O=[N+]([O-])c1cc([N+](=O)[O-])c(O)c([N+](=O)[O-])c1.c1ccc(Oc2ccncc2)cc1`, the activity (Tm shift, normalised) is inactive: 0.257%.
To `O=C(OC1CN2CCC1CC2)c1cccc([N+](=O)[O-])c1` (configuration not stated) belongs inactive: -0.102%.
For `CP(=O)(Nc1ccccn1)Oc1ccc(Cl)cc1` (configuration not stated), the activity (Tm shift, normalised) was inactive: 0.153%.
As to `CC1CCNP(=O)(N(CCCl)CCCl)O1` (configuration not stated), the activity (Tm shift, normalised) is inactive: -0.184%.
Turning to `O=C(O)C(=O)c1ccc(N(CCCl)CCCl)cc1.c1ccc(Nc2ccccc2)cc1`, the activity (Tm shift, normalised) is inactive: 0.173%.
To `CCOC(=O)Nc1ccc([As](=O)(O)O)c(O)c1` belongs inactive: -0.045%.
As for `CCCCOc1ccc(C(=O)NCC2(N3CCCCC3)CCCCC2)cc1OC`, the activity (Tm shift, normalised) is inactive: -0.324%.
Take `CCOC(=O)Nc1cccc([As](=O)(O)O)c1`: the activity (Tm shift, normalised) is inactive: -0.079%.
Regarding `CP(=O)(Nc1ccccc1Br)Oc1ccccc1` (configuration not stated), the activity (Tm shift, normalised) is inactive: -0.075%.
As to `O=[N+]([O-])c1ccc(Nc2ccc(Oc3ccc([N+](=O)[O-])cc3[N+](=O)[O-])cc2)c([N+](=O)[O-])c1`, the activity (Tm shift, normalised) is inactive: -0.21%.
In the case of `O=P(Nc1ccccn1)(c1cccc2ccccc12)c1cccc2ccccc12`, the activity (Tm shift, normalised) is inactive: -0.076%.
As to `Cc1cc(SC(NC=O)C(Cl)(Cl)Cl)ncn1` (configuration not stated), the activity (Tm shift, normalised) is inactive: 0.156%.
With `COc1ccccc1OP(C)(=O)Nc1ccccc1` (configuration not stated), the activity (Tm shift, normalised) was inactive: 0.135%.
Consider `C[As](=O)(O)c1cccc(C(=O)O)c1`, for which the activity (Tm shift, normalised) was inactive: -0.04%.
Regarding `O=[As](O)(c1ccc(O)cc1)c1ccccc1O`, the activity (Tm shift, normalised) is inactive: -0.033%.
As for `O=[N+]([O-])c1ccc(-c2cc([N+](=O)[O-])c(O)c([N+](=O)[O-])c2)cc1`, the activity (Tm shift, normalised) was inactive: 0.027%.
To `COc1cc(C(=O)NCC2(N3CCOCC3)CCCCC2)ccc1OCC(C)C` belongs inactive: -0.022%; to `O=[N+]([O-])c1cc([N+](=O)[O-])c(Nc2cccnc2)c([N+](=O)[O-])c1`, inactive: -0.167%.
With `O=[N+]([O-])c1ccc2c(c1)C=Nc1ccccc1O2` the figure was inactive: 42.8%; with `Cc1ccc2nc3c(c(C)c2c1)CC(C(Cl)Cl)S3` (configuration not stated), inactive: 0.46%; with `[N-]=[N+]=NC1CCCCC1NC(=O)c1cc([N+](=O)[O-])cc([N+](=O)[O-])c1` (configuration not stated), inactive: -0.048%.
With `Cc1ccc(OP(=O)(Nc2ccc([N+](=O)[O-])cn2)Oc2ccc(C)cc2)cc1`, the activity (Tm shift, normalised) was inactive: 0.029%.
Consider `CC(C)(C)c1ccc(OP(C)(=O)Nc2ccc(SC(F)(F)F)cc2)cc1` (configuration not stated), for which the activity (Tm shift, normalised) is inactive: 0.389%.
Turning to `Cc1cccc(C)c1OP(C)(N)=O` (configuration not stated), the activity (Tm shift, normalised) was inactive: -0.156%.
For `COC(=O)C1(C)COP(=O)(N2CCCCCC2)OC1` (configuration not stated), the activity (Tm shift, normalised) is inactive: -0.036%.
Take `CC(C)c1ccc(OP(=O)(Nc2ccccn2)Oc2ccccc2F)cc1` (configuration not stated): the activity (Tm shift, normalised) was inactive: 0.187%.
Take `Cc1cc(C)cc(OP(C)(N)=O)c1` (configuration not stated): the activity (Tm shift, normalised) is inactive: -0.041%.
For `COc1ccccc1OP(C)(=O)Nc1cc(Cl)ccc1C` (configuration not stated), the activity (Tm shift, normalised) is inactive: 0.269%.
Take `CC(C)NC(=O)NP(=O)(Oc1ccccc1)Oc1ccccc1`: the activity (Tm shift, normalised) is inactive: 0.135%.
For the compound `O=C(OC1CN2CCC1CC2)c1cccc2[nH]cnc12` (configuration not stated), the activity (Tm shift, normalised) was inactive: -0.253%.
For `CCN(CC)CCCOC(=O)C(O)(c1ccccc1)c1ccccc1`, the activity (Tm shift, normalised) was inactive: -0.015%.
In the case of `Cc1cc(=O)[nH]c(N[N+](=O)[O-])n1`, the activity (Tm shift, normalised) was inactive: 0.073%.
For the compound `Cc1c2c(nc3ccccc13)SC(C(Cl)Cl)C2` (configuration not stated), the activity (Tm shift, normalised) was inactive: 0.38%.

These data come from PubChem BioAssay AID651658 (Broad Institute, 2012).
